# Only a part is listed here, and it is no random draw. Results filed as inconclusive are left out. Active and inactive are the calls of the source. Calls follow the shape of the dose curve; as a rule, active = well fitted inhibition curve with a large enough effect; inconclusive = small, poorly fitted or top-dose-only effect, or effect the other way; inactive = no such curve, though single readings can be large or run the other way.
# Chains of the proteins cited; added tags and fusions are not shown.
# UniProt P51450, whole entry: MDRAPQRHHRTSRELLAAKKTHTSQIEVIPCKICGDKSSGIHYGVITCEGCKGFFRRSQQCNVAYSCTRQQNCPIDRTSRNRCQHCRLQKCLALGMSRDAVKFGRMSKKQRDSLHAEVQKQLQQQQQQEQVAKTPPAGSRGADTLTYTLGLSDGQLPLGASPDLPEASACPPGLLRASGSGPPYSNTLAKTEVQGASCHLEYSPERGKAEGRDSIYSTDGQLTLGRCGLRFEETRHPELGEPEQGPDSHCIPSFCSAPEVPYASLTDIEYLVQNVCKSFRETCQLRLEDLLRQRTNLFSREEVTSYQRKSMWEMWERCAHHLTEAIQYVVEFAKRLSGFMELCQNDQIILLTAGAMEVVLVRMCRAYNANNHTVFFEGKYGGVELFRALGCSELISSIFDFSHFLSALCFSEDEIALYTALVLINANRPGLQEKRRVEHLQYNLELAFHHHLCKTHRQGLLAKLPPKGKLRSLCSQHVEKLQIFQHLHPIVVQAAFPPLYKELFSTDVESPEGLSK
# Molecular target: Nuclear receptor ROR-gamma (Mus musculus) (UniProt P51450)
# Experiment: qHTS for inhibitors of ROR gamma transcriptional activity; also: nearly all actives have a fitted effect of over 60% in size
# Conditions: Drosophila S2 Gal4-RORgamma UAS-luciferase reporter, 20 h; at 53.6 µM (top of the series)
# % is scaled to controls: 0 for no effect and ±100 for the full control effect.
row,Compound,"activity change, negative = inhibition"
1,O=[N+]([O-])C(Cl)(Cl)Cl,inactive: -0.161%
2,CCC(=O)N(c1ccccc1)C1CCN(CCc2ccccc2)CC1,inactive: -18.2%

# Reference: PubChem BioAssay AID2551 (National Center for Advancing Translational Sciences (NCATS), 2010)
